# Experimental data from ChEMBL document CHEMBL3436045 (Sci Rep, 2013).
# Amino acid sequences for entries named in this document (tags omitted). A change or cut given only in a name is not applied to a line headed by its entry.
# UniProt Q13936: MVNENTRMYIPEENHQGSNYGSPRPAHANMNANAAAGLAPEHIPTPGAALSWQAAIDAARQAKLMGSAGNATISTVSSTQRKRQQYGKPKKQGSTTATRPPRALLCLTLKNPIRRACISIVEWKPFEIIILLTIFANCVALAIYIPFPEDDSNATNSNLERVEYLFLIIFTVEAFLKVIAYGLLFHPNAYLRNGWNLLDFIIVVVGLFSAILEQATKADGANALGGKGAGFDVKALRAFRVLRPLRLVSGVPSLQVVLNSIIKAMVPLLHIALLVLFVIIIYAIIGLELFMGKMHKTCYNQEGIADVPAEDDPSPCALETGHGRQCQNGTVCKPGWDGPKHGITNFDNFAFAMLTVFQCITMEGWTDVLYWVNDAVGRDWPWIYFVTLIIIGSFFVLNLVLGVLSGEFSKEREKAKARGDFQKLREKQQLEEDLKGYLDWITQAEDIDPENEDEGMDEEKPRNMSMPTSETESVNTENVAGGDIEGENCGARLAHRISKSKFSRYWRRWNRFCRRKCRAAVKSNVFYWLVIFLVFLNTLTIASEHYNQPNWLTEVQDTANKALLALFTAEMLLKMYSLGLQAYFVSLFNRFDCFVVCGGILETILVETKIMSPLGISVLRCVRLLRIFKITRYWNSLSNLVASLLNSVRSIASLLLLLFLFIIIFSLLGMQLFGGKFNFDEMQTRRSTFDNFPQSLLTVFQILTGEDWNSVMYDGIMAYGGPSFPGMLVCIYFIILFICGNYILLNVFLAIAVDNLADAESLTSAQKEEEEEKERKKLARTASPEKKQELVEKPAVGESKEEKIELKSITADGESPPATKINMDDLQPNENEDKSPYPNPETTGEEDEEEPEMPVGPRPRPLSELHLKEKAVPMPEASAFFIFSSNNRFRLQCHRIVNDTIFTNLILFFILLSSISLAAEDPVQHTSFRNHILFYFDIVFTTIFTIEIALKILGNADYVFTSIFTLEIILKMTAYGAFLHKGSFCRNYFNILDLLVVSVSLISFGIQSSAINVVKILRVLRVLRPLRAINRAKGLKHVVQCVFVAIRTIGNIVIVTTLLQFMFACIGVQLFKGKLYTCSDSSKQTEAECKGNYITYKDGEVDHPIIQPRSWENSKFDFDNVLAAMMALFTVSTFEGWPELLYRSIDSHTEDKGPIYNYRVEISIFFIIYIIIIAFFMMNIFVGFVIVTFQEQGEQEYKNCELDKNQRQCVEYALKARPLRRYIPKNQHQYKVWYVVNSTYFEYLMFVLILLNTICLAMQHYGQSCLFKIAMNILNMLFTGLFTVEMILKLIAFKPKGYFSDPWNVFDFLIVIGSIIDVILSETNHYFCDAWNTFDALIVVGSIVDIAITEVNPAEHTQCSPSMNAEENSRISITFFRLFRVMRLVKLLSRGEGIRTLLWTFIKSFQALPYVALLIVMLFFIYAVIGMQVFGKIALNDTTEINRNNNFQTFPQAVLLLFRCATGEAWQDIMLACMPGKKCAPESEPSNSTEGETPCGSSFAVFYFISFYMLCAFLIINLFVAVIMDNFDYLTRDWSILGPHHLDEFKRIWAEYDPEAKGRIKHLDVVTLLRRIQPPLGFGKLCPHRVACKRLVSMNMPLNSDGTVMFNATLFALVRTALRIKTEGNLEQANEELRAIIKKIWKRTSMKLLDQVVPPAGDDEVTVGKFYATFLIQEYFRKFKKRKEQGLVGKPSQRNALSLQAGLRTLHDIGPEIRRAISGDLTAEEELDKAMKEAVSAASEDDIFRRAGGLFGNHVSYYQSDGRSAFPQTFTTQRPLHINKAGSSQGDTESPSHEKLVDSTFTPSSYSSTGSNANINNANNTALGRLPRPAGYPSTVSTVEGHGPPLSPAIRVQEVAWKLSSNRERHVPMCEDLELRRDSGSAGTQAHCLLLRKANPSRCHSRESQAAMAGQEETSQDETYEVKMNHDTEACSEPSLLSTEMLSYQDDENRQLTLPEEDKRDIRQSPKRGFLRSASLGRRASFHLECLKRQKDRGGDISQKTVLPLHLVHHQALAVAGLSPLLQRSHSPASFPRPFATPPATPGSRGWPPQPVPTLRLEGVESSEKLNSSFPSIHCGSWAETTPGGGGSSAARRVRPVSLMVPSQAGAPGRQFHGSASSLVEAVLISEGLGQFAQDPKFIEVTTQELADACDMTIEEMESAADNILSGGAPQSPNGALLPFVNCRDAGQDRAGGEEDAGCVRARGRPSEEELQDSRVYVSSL
# UniProt Q01668: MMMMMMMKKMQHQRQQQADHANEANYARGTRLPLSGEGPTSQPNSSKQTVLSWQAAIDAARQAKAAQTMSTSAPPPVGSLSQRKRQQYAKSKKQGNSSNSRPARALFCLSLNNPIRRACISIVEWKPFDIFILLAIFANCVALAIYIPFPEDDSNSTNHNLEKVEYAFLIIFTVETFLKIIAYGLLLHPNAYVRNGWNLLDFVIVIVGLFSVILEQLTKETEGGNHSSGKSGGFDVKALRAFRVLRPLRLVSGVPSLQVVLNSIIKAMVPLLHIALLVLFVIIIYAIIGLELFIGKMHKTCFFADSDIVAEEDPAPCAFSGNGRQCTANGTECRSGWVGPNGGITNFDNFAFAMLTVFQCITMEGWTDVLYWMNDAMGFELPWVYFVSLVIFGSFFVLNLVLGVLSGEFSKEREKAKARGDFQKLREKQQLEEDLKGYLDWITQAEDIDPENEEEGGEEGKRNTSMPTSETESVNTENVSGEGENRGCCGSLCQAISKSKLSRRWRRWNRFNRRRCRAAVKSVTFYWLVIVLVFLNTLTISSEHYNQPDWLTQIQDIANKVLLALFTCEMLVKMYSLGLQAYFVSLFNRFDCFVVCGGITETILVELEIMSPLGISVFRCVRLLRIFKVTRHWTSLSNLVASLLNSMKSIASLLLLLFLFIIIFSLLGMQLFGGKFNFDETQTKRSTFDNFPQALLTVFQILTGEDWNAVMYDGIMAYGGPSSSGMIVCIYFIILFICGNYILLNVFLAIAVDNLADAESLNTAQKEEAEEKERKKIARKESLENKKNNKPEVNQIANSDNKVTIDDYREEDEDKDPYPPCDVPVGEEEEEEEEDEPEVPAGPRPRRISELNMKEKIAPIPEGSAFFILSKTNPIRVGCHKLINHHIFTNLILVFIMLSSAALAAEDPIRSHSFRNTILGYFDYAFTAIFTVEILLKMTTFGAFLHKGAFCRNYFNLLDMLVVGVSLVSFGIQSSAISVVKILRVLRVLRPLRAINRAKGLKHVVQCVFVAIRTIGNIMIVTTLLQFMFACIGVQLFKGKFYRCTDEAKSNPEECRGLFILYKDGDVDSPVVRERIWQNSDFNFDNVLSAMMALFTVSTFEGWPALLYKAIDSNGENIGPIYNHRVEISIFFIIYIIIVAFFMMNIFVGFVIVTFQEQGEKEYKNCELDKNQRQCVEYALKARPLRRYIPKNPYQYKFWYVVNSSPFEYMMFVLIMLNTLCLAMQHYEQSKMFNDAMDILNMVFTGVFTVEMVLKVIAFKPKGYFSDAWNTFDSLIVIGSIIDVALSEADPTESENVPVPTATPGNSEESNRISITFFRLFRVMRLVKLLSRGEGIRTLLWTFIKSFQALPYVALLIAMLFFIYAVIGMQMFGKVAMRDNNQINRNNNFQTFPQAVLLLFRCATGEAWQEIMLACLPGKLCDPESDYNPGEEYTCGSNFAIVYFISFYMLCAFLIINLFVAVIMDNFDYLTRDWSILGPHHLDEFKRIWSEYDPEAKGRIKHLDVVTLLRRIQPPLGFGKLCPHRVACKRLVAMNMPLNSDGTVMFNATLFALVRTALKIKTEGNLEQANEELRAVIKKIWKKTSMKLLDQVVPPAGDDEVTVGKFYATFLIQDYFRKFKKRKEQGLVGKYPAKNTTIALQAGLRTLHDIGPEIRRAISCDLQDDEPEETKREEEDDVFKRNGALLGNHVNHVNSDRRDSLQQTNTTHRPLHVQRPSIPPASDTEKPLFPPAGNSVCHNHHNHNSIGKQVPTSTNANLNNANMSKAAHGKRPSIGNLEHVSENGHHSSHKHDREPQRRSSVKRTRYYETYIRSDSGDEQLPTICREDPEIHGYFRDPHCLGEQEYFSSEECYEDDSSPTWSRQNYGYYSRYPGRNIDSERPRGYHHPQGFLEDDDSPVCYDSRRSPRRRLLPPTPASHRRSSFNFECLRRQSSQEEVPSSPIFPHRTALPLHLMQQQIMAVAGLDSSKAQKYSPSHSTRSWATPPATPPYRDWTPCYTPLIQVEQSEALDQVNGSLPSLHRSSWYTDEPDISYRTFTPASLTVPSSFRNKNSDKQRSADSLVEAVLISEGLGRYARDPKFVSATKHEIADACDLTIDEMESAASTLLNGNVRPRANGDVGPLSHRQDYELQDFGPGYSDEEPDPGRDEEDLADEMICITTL
# UniProt O60840: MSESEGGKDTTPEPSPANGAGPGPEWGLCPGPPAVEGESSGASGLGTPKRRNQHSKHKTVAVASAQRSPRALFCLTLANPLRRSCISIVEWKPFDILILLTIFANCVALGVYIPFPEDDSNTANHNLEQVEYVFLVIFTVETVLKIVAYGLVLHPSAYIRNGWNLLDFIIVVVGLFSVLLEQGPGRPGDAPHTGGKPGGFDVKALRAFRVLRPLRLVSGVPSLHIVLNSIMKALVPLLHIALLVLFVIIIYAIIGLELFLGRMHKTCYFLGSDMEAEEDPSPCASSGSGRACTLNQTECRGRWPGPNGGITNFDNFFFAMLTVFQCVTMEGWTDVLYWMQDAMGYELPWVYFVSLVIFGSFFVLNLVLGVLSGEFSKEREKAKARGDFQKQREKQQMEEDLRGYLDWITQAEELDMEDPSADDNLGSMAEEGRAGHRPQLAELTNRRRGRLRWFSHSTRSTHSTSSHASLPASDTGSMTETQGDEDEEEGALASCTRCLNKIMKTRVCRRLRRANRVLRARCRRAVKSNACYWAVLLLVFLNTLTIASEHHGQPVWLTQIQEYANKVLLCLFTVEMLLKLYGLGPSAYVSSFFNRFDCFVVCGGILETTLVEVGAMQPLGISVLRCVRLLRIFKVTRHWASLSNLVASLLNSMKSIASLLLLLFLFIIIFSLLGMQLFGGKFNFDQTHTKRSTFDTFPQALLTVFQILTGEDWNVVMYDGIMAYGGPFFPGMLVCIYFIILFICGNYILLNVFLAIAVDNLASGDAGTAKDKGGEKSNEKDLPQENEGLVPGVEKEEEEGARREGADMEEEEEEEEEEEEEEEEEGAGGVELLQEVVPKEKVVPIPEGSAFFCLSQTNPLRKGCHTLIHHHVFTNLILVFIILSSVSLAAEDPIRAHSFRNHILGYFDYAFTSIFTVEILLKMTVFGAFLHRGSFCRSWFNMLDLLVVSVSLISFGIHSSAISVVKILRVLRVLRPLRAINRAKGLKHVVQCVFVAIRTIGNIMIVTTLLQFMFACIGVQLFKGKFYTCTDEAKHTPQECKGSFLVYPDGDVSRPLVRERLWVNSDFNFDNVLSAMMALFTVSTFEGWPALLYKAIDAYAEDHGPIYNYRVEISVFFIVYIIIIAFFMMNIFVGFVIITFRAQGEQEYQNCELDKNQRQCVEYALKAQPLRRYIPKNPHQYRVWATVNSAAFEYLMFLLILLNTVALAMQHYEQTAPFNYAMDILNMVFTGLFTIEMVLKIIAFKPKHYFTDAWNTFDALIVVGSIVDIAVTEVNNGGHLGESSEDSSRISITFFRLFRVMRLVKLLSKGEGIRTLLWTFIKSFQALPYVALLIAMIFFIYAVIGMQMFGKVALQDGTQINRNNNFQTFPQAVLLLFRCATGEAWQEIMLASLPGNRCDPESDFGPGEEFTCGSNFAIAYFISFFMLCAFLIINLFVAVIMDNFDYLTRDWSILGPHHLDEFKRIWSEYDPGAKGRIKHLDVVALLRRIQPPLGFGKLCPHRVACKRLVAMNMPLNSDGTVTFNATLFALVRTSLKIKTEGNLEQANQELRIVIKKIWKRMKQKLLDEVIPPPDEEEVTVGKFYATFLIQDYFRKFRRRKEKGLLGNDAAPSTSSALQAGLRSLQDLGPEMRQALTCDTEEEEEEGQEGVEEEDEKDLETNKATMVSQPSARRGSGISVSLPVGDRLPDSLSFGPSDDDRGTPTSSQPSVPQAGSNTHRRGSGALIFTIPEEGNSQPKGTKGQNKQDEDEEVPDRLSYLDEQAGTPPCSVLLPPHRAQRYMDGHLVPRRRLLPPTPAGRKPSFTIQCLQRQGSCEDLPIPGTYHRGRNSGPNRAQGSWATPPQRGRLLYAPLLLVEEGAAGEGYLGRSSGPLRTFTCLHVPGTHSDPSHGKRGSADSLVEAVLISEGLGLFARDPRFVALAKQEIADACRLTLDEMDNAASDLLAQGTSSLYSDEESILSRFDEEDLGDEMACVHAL
# Target: Voltage-gated L-type calcium channel (Homo sapiens, UniProt Q13936+Q13698+Q01668+O60840)
# Assay: Inhibition of Cav1.2 current measured using QPatch automatic path clamp system in CHO cells expressing Cav1.2, beta-2 and alpha-2/delta-1 subunits
# Format: functional, cell-based, Cricetulus griseus
# Set-up: ca sol conc 1.8 mM, temp Ambient
structure (smiles),measurement,value
CC(C)COCC(CN(Cc1ccccc1)c1ccccc1)N1CCCC1 (stereo unspecified) [BEPRIDIL],IC50,1 µM
